Source: PubChem BioAssay (National Center for Advancing Translational Sciences (NCATS))
Rows were chosen to be rich in hits. Some 16% of all compounds tested hit in one or more screens of this group.
miR-21 reporter: miR-21 reporter, rising signal. HeLa miR-21 FLuc reporter, luciferase, 48 h. Potency, µM (highest dose often 38.3 µM). 340,000 tested, under 10 active. AID 2288; active = well fitted rising curve with a large enough effect; inconclusive = small, poorly fitted or top-dose-only effect; inactive = no such curve, though single readings can be large or run the other way;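 further: miR-21 action dims this reporter so a rising signal means less miR-21 action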
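HeLa miR-21-FLuc reporter line, endogenous miR-21; 2000 cells/well in DMEM/10% FBS; compound titration up to ~40uM final, 48 h, 37 degree Celsius; luciferase detection reagent, 15 min lysis, CCD luminescence.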
TDP1 block: blocks human tyrosyl-DNA phosphodiesterase 1. Potency, µM (highest dose often 130 µM), usual class: inhibitors. recombinant TDP1, AlphaScreen DNA substrate cleavage. actives 0.28% (n = 350,000). AID 485290; further: nearly all actives have a fitted effect of over 40% in size
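Steps: enzyme plus compound, 15 min RT; add biotin/phosphotyrosine-FITC oligonucleotide (15 nM final), react 5 min; add donor/acceptor beads (10 ug/ml final), 10 min; read AlphaScreen. Tdp1 at 1 nM final.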
uPA generation: blocks generation of uPA at the cell surface; cell surface uPA generation assay, qHTS; Potency, µM (top dose mostly 38.3 µM), actives largely listed as inhibitors; actives 0.31% (n = 330,000); active means well fitted inhibition curve with a large enough effect; inconclusive means small, poorly fitted or top-dose-only effect; inactive means no such curve, though single readings can be large or run the other way; tested in mouse RAW 264.7 cells; further: nearly all actives have a fitted effect of over 55% in size
TDP1 cell CPT: DT40-hTDP1 cell growth loss with CPT; chicken DT40 Tdp1-/-;hTDP1 cells + 20 nM CPT, ATP luminescence, 48 h; Potency, µM (doses to about 46.2 µM), usual class: inhibitors; AID 686979; actives 12% (n = 420,000); further: nearly all actives have a fitted effect of over 55% in size
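Chicken DT40 Tdp1-/- cells complemented with human TDP1, 400 cells/well, exposed to compounds plus 20 nM camptothecin for at least 48 h at 37 C; viability read as ATP content by CellTiter-Glo luminescence.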
DT40 TDP1 no CPT: qHTS for Inhibitors of human tyrosyl-DNA phosphodiesterase 1 (TDP1): qHTS in cells in absence of CPT; actives 15% (n = 420,000); DT40 Tdp1-/- hTDP1 cells, no CPT, ATP luminescence, 48 h; Potency, µM (titrated, usually from 46.2 µM), most hits filed as inhibitors; further: nearly all actives have a fitted effect of over 55% in size
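A cellular qHTS used chicken DT40 cells lacking endogenous Tdp1 but carrying stably transfected human TDP1. Compounds were applied without camptothecin, and cell growth kinetics were judged by ATP-dependent luminescence after ≥48 hr.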
Large screens that a line does not name were inactive. Unless noted, the call rests on the fitted dose curve; in most records, active means well fitted curve in the direction sought with a large enough effect; inconclusive means small, poorly fitted or top-dose-only effect, or another doubt; inactive means no such curve, though single readings can be large; an effect the other way counts as inactive or inconclusive.

COc1ccc(NC(=O)/C=C/c2cc(Br)ccc2OC)cc1	TDP1 cell CPT inconclusive, DT40 TDP1 no CPT 21µM
CCN(CC)c1ccc(NC(=O)/C=C/c2cc(Br)ccc2OC)cc1	TDP1 cell CPT inconclusive, DT40 TDP1 no CPT inconclusive
COc1ccc(Br)cc1/C=C\C(=O)NCc1cccnc1	DT40 TDP1 no CPT inconclusive
COc1ccc(Br)cc1/C=C/C(=O)Nc1c(C)cccc1C	TDP1 cell CPT inconclusive, DT40 TDP1 no CPT 23µM (no result: uPA generation)
COc1ccc(Br)cc1/C=C/C(=O)c1ccc(NC(C)=O)cc1	miR-21 reporter inconclusive, TDP1 cell CPT 5.8µM, DT40 TDP1 no CPT 4.1µM
Cc1ccc2[nH]c3c(=O)n(CC(=O)N4CCN(c5cccc(C(F)(F)F)c5)CC4)ncc3c2c1	none (no result: uPA generation)
CC(C)(C)C(=O)Nc1nc(NC(=O)C(C)(C)C)nc(-c2ccccc2Cl)n1	none
CCc1ccc(OCC(=O)Nc2ccc(S(=O)(=O)Nc3onc(C)c3C)cc2)cc1	none (no result: uPA generation)
COCc1ccc(C(=O)N2CCC(CCC(=O)Nc3cccc(C)c3)CC2)s1	none
COc1cccc(NC(=O)CCC2CCN(C(=O)c3c(C)noc3C)CC2)c1	TDP1 cell CPT inconclusive, DT40 TDP1 no CPT inconclusive
Cc1cccc(NC(=O)CCC2CCN(C(=O)c3ccc(C)s3)CC2)c1	DT40 TDP1 no CPT 4.1µM
CCc1noc(C)c1C(=O)N1CCC(CCC(=O)Nc2cccc(OC)c2)CC1	TDP1 cell CPT 9.2µM, DT40 TDP1 no CPT 8.2µM
COC(C(=O)N1CCC(CCC(=O)Nc2ccccc2)CC1)c1ccccc1 (stereo not given)	TDP1 cell CPT 21µM, DT40 TDP1 no CPT 9.2µM
O=C(CCNC(=O)c1ccccc1)NNC(=O)c1ccccc1Br	none (no result: miR-21 reporter)
Cc1ccc(NC(=S)N(Cc2ccccc2)Cc2cccs2)c(C)c1	none
Cn1cc(CNCc2ccc(OC(F)(F)F)cc2)c(-c2ccc3c(c2)OCCO3)n1	TDP1 cell CPT 7.3µM, DT40 TDP1 no CPT 2.6µM
Cc1cc(C)c(S(=O)(=O)c2ccc(F)cc2C)c(Cl)n1	TDP1 cell CPT inconclusive, DT40 TDP1 no CPT inconclusive (no result: TDP1 block)
CCn1nc(C(=O)NNC(=O)C(Cc2ccccc2)NC(N)=O)c2ccccc2c1=O (stereo not given)	none (no result: miR-21 reporter)
Cc1ccc(C(=O)CSc2nc3cc(S(=O)(=O)N4CCOCC4)ccc3o2)cc1	TDP1 cell CPT 18µM, DT40 TDP1 no CPT inconclusive
CCC(C)NC(=O)CSc1nc2cc(S(=O)(=O)N3CCOCC3)ccc2n1CC (stereo not given)	none (no result: miR-21 reporter, TDP1 block)
CCn1c(SCC(=O)c2cc(C)ccc2C)nc2cc(S(=O)(=O)N3CCOCC3)ccc21	TDP1 cell CPT inconclusive, DT40 TDP1 no CPT 18µM
Cc1[nH]c2ccccc2c1C(=O)CSc1nc2cc(S(=O)(=O)N3CCCCC3)ccc2o1	TDP1 cell CPT 23µM, DT40 TDP1 no CPT 21µM
CCn1c2ccccc2c2nc3cc(S(=O)(=O)N4CCOCC4)ccc3nc21	TDP1 cell CPT 15µM, DT40 TDP1 no CPT 13µM
CC(C)n1c(=O)c2c(O)cc(=O)oc2c2ccccc21	none (no result: uPA generation)
O=CN1CCN(C(=O)Cc2ccc(Cl)cc2)CC1	none (no result: miR-21 reporter, TDP1 block, uPA generation)
CCOC(=O)c1c(C)[nH]c(C(=O)COC(=O)C(C)N2C(=O)C3CCCCC3C2=O)c1C (stereo not given)	TDP1 cell CPT inconclusive, DT40 TDP1 no CPT inconclusive (no result: uPA generation)
O=C(CSc1nc2cc(S(=O)(=O)N3CCOCC3)ccc2o1)Nc1c(F)cccc1F	TDP1 cell CPT 21µM, DT40 TDP1 no CPT 21µM
CCc1cccc(CC)c1NC(=O)CSc1nc2ccc(N3C(=O)C4C5C=CC(C5)C4C3=O)cc2s1 (stereo not given)	TDP1 cell CPT 21µM, DT40 TDP1 no CPT 18µM
COC(=O)N1CCc2c(sc(NC(=O)C3=COCCO3)c2C#N)C1	TDP1 cell CPT 1.3µM, DT40 TDP1 no CPT 0.92µM (no result: miR-21 reporter)
COc1cccc(C(=O)Nc2sc3c(c2C#N)CCN(C(C)=O)C3)c1	uPA generation 0.4µM, TDP1 cell CPT 2.1µM, DT40 TDP1 no CPT 1.5µM
COc1ccc(C(=O)Nc2ccc3c(c2)CCCN3S(=O)(=O)c2ccc(C)cc2)cc1	TDP1 cell CPT 21µM, DT40 TDP1 no CPT 13µM (no result: uPA generation)
COc1ccc2c(c1)CCCN2S(=O)(=O)c1ccc(Cl)cc1	uPA generation inconclusive, TDP1 cell CPT 23µM, DT40 TDP1 no CPT 15µM
Cc1ccc(S(=O)(=O)N2CCCc3cc(NC(=O)c4ccc(C(C)(C)C)cc4)ccc32)cc1	TDP1 cell CPT 4.1µM, DT40 TDP1 no CPT 3.7µM (no result: uPA generation)
COc1ccc2c(c1)CCCN2C(N)=Nc1ccc(Cl)cc1	TDP1 cell CPT inconclusive, DT40 TDP1 no CPT 23µM (no result: TDP1 block)
Cc1ccc(N2CCn3c2nc2c3c(=O)n(CCc3ccccc3)c(=O)n2C)cc1C	none (no result: uPA generation)
N#C/C(=C\c1ccc(OCc2cccc(C(=O)O)c2)cc1)C(=O)NCc1ccco1	none (no result: TDP1 block)
CCOc1ccc(-c2cncc3nccn23)cc1	none (no result: miR-21 reporter, TDP1 block, uPA generation)
COc1cccc(N(C(=O)CCl)C(C(=O)NCCc2ccccc2)c2cccs2)c1 (stereo not given)	miR-21 reporter inconclusive, TDP1 cell CPT 4.1µM, DT40 TDP1 no CPT 4.6µM
COc1cccc(N(C(=O)CS(=O)CC(=O)Nc2ccc(F)cc2)C(C(=O)NC2CCCCC2)c2cccs2)c1 (stereo not given)	TDP1 cell CPT inconclusive, DT40 TDP1 no CPT inconclusive
COc1ccc(N(C(=O)CCl)C(C(=O)NCCc2ccccc2)c2cccs2)cc1Cl (stereo not given)	miR-21 reporter inconclusive, uPA generation 4µM, TDP1 cell CPT 2.6µM, DT40 TDP1 no CPT 1.5µM
CN(Cc1ccccc1)c1ccc(C(CC(N)=O)NC(=O)Cc2cccc3ccccc23)cc1[N+](=O)[O-] (stereo not given)	none (no result: TDP1 block)
Cc1ccc(C2/C=C\CC(NC(=O)OCC3c4ccccc4-c4ccccc43)CC(=O)N2Cc2ccccc2)cc1 (stereo not given)	TDP1 cell CPT inconclusive, DT40 TDP1 no CPT 16µM (no result: miR-21 reporter)
COC(=O)COc1ccc2c(c1)O/C(=C\c1cccc([N+](=O)[O-])c1)C2=O	TDP1 cell CPT 18µM, DT40 TDP1 no CPT 13µM (no result: TDP1 block)
CCCCN(CCCC)CCNC(=O)Cn1nc(CC)n2c(cc3sc(C)cc32)c1=O	TDP1 cell CPT 15µM, DT40 TDP1 no CPT 16µM (no result: uPA generation)
CCc1cc2c(cc3c(=O)n(CC(=O)N4CCCCC4)nc(CC)n32)s1	TDP1 cell CPT inconclusive, DT40 TDP1 no CPT inconclusive (no result: uPA generation)
CCc1cc2c(cc3c(=O)n(CC(=O)NC(C)C)nc(CC)n32)s1	TDP1 cell CPT inconclusive, DT40 TDP1 no CPT 16µM (no result: uPA generation)
Cc1cc2c(SCc3ccccc3Cl)nc(N)nc2nc1C	DT40 TDP1 no CPT inconclusive (no result: miR-21 reporter, TDP1 block)
COc1ccc(NC(=O)CN(C)C2CCCCC2)c([N+](=O)[O-])c1	TDP1 cell CPT inconclusive, DT40 TDP1 no CPT inconclusive
O=C(CC1N=C2c3ccccc3N=C(SCC(=O)Nc3ccc(F)cc3)N2C1=O)NCc1cccs1 (stereo not given)	TDP1 cell CPT inconclusive, DT40 TDP1 no CPT inconclusive (no result: uPA generation)
Cc1ccc(CSC2=Nc3ccccc3C3=NC(CCC(=O)NCc4cccs4)C(=O)N23)cc1 (stereo not given)	DT40 TDP1 no CPT inconclusive (no result: uPA generation)
